Laboratory results reported in patent US4681872A (priority 1985, dated 1987).
In brackets after ≈: the same amount, converted by molar mass.

Test system: E. coli JUHL
Settings: BHI agar, 35°-37° C., 20-24 hours

CCC1OC(=O)C(C)C(OC2CC(C)(OC)CC(C)O2)C(C)C(OC2OC(C)CC(N(C)C)C2O)C(C)(O)CC(C)C(=O)C(C)C2OC(=O)OC12C (stereo not shown) [4"-deoxyerythromycin A 11,12-carbonate] gave an MIC of 12.5 µg/mL (≈ 16.8 µM).
